Here are results for two compounds from ChEMBL document CHEMBL1129291, “Tyrosine kinase inhibitors. 8. An unusually steep structure-activity relationship for analogues of 4-(3-bromoanilino)-6,7-dimethoxyquinazoline (PD 153035), a potent inhibitor of the epidermal growth factor receptor” (J Med Chem, 1996).

By UniProt entry, the sequences of proteins in these tests, tags left out.
UniProt P00533, whole entry: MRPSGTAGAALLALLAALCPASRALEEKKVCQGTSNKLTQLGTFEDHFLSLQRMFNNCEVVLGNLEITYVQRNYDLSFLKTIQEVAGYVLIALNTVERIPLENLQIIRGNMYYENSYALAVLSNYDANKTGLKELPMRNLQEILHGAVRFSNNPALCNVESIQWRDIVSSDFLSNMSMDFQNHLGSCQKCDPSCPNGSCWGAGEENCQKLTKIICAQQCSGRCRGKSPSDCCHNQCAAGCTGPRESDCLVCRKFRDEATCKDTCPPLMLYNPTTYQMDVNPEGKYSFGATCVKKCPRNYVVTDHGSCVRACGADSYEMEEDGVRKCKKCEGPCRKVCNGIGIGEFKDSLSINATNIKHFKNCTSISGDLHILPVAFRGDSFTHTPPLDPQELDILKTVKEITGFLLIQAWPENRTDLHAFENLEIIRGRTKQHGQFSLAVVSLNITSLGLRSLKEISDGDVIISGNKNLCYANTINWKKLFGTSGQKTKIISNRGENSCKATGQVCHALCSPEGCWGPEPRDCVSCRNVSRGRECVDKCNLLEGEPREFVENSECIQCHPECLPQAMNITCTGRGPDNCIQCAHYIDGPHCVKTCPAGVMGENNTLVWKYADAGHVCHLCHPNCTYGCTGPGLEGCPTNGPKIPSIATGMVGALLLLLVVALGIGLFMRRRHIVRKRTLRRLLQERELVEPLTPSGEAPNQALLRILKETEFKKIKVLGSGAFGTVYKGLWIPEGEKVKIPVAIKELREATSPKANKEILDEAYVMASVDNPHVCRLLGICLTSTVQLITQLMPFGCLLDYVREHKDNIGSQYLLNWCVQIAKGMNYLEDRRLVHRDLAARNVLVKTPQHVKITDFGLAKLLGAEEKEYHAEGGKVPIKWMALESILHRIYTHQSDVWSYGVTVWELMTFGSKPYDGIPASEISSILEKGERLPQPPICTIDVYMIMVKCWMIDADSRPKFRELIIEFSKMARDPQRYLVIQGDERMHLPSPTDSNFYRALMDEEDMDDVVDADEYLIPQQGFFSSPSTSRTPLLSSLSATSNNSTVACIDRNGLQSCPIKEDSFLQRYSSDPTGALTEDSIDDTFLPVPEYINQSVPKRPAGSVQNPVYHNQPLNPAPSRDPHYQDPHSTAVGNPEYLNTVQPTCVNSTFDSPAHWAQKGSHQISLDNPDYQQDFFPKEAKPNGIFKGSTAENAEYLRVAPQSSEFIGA

For the assay, the target named is Epidermal growth factor receptor (Homo sapiens, UniProt P00533). The assay is described as follows: Concentration required to inhibit the phosphorylation of a 14-residue fragment of phospholipase C gamma 1 by Epidermal growth factor receptor from A431 cell vesicles.

Molecules are shown by their SMILES.

The IC50 is the concentration that gives 50% inhibition. In turn, `COc1cc2ncnc(Nc3cccc(Cl)c3)c2cc1OC` [TYRPHOSTIN AG-1478] registered an IC50 of 0.31 nM. This counts as sub-nanomolar. Take `COc1cc2ncnc(Nc3cccc(F)c3)c2cc1OC`: the half-maximal inhibitory concentration (IC50) worked out at 3.8 nM.
